The target of the test is T1, human neutrophil elastase (HNE) (Homo sapiens, UniProt P08246).
T1 construct: purchased Serva, Heidelberg
T1 sequence (P08246 30-267): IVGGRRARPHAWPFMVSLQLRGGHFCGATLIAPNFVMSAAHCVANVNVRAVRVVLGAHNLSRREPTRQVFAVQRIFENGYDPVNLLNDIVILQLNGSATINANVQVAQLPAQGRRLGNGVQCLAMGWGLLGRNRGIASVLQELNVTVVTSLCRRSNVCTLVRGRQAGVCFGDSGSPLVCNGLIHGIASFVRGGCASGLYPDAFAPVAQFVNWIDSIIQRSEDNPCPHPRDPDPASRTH
Nature of the test: In vitro HNE inhibition assay. Type of test: biochemical. Here is the method: B-1. In vitro HNE Inhibition Assay
The potency of the compounds of the invention is ascertained in an in vitro inhibition assay. The HNE-mediated amidolytic cleavage of a suitable peptide substrate leads in this connection to an increase in the fluorescent light. The signal intensity of the fluorescent light is directly proportional to the enzyme activity.
Enzyme (80 pM HNE; from Serva, Heidelberg) and substrate (20 μM MeOSuc-Ala-Ala-Pro-Val-AMC; from Bachem, Weil am Rhein) are incubated in an assay volume of in total 50 μl of assay buffer (0.1 M HEPES pH 7.4, 0.5 M NaCl, 0.1% w/v BSA, 1% v/v DMSO) in a 384-well microtiter plate in the presence and absence of the test substance at 37° C. for 2 hours. […] The IC50 values are determined by plotting the intensity of the fluorescent light against the active substance concentration.

The term IC50 denotes the concentration at which inhibition is half-maximal.

In turn, `CC(=O)C1=C(C)N(c2cccc(C(F)(F)F)c2)C(=O)N[C@@H]1c1ccc(C#N)nc1` [Example 9, 5-{(4R)-5-Acetyl-6-methyl-2-oxo-1-[3-(trifluoromethyl)phenyl]-1,2,3,4-tetrahydropyrimidin-4-yl}-pyridine-2-carbonitrile] returned an IC50 of 20 nM.

Values taken from US20100010024A1, “USE OF1,4-DIARYL-DIHYDROPYRIMIDINE-2-ON DERIVATIVES FOR TREATING PULMONARY ARTERIAL HYPERTENSION” (Bayer Healthcare AG, priority 2006, published 2010).
